Laboratory results reported in PubChem BioAssay AID1359 (The Scripps Research Institute Molecular Screening Center, 2008).
Only a part is listed here, and it is no random draw. Calls of active or inactive are those of the source. Cut-off read from the data, not from the text of the source: active = activation above about 27%; inactive = the rest.

Chains of the proteins cited; added tags and fusions are not shown.
UniProt P49146, whole entry: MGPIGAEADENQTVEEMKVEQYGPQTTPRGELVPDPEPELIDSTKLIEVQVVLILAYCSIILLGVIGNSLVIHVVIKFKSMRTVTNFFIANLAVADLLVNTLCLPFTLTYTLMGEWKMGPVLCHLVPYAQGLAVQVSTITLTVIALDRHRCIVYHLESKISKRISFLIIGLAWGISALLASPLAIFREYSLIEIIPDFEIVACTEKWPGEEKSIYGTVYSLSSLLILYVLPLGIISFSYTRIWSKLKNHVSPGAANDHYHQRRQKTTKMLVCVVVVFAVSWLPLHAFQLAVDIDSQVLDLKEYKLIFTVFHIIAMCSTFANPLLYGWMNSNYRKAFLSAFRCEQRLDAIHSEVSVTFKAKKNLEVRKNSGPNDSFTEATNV

Biological target: Neuropeptide Y receptor type 2 (Homo sapiens) (UniProt P49146)
Experiment: human Y2 receptor positive modulation or activation – cell-based, primary screen (AID 1359);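 note: cells stimulated with NPY near EC25 plus isoproterenol at EC100; 0% = vehicle plus submaximal agonist and 100% = vehicle plus saturating agonist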
Details: cells expressing NPY-Y2, potentiator/agonist read-out; at 3.6 µM; hits give high values

SMILES	activation
O=[N+]([O-])c1cc([N+](=O)[O-])c(Nc2nnnn2CCO)c([N+](=O)[O-])c1	inactive: -7.28%
CCOC(=O)C(CC)C1=NC(C)(C)Cc2ccccc21.O=[N+]([O-])c1cc([N+](=O)[O-])c(O)c([N+](=O)[O-])c1 (stereo not drawn)	inactive: -28.5%
COc1ccccc1OP(C)(=O)Nc1c(C)cccc1C (stereo not drawn)	inactive: -8.75%
CN1CCCCC1COC(=O)C1(O)c2ccccc2CCc2ccccc21 (stereo not drawn)	inactive: -13.2%
CCCOc1ccc(NP(C)(=O)Oc2ccc(Cl)cc2)cc1 (stereo not drawn)	inactive: -17.9%
CP(=O)(Nc1ccc(SC(F)(F)F)cc1)Oc1ccccc1 (stereo not drawn)	inactive: 14.8%
O=[N+]([O-])c1cc([N+](=O)[O-])c(-n2nnc3ccccc32)c([N+](=O)[O-])c1	inactive: -7.07%
Cc1nc2ccc3ccccc3c2s1.O=[N+]([O-])c1cc([N+](=O)[O-])c(O)c([N+](=O)[O-])c1	inactive: -7.43%
COc1ccccc1OP(C)(=O)Nc1cccc(Br)c1 (stereo not drawn)	inactive: -3.28%
CCOC(=O)c1ccc(NP(C)(=O)Oc2cc(C)cc(C)c2)cc1 (stereo not drawn)	inactive: -13%
Cc1cc(C)cc(OP(C)(=O)Nc2ccc(C)cc2C)c1 (stereo not drawn)	inactive: -10.4%
Cc1ccc(C)c(NP(C)(=O)Oc2ccccc2)c1 (stereo not drawn)	inactive: 2.14%
Cc1cc(C)cc(OP(C)(=O)Nc2ccccn2)c1 (stereo not drawn)	inactive: -2.19%
CP(=O)(Nc1cccc(Br)c1)Oc1ccccc1 (stereo not drawn)	inactive: -0.82%
O=C(O)c1cccc(Nc2c([N+](=O)[O-])cc([N+](=O)[O-])cc2[N+](=O)[O-])c1	inactive: 4.23%
CC1=NCCc2c1[nH]c1ccccc21.O=[N+]([O-])c1cc([N+](=O)[O-])c(O)c([N+](=O)[O-])c1	inactive: -0.85%
O=[N+]([O-])c1ccc2c(c1)C=Nc1ccccc1O2	inactive: 17.4%
CC(C)(C)c1ccc(OP(C)(=O)Nc2ccc(SC(F)(F)F)cc2)cc1 (stereo not drawn)	inactive: 1.65%
Cc1cccc(C)c1OP(C)(N)=O (stereo not drawn)	inactive: -22.2%
COc1ccccc1OP(C)(=O)Nc1ccc(C)cc1 (stereo not drawn)	inactive: 6.5%
Cc1ccc(NP(C)(=O)Oc2ccccc2)c(C)c1 (stereo not drawn)	inactive: 6.66%

SMILES	activation
CCOC(=O)c1ccc(NP(C)(=O)Oc2ccccc2)cc1 (stereo not drawn)	inactive: 6.79%
Cc1cc(C)cc(OP(C)(N)=O)c1 (stereo not drawn)	inactive: -5.86%
COc1ccccc1OP(C)(=O)Nc1cc(Cl)ccc1C (stereo not drawn)	inactive: 1.44%
COc1ccc(OP(C)(=O)Nc2cccc(F)c2)cc1 (stereo not drawn)	inactive: 1.44%
CCN(CC)CCCOC(=O)C(O)(c1ccccc1)c1ccccc1	inactive: -9.49%
Cc1cccc(C)c1OP(C)(=O)Nc1ccc(SC(F)(F)F)cc1 (stereo not drawn)	inactive: 7.27%
CP(=O)(Nc1ccc(SC(F)(F)F)cc1)Oc1ccc(Cl)cc1 (stereo not drawn)	inactive: -1.58%
CP(=O)(Oc1ccccc1)OC(c1ccccc1)C(F)(F)F (stereo not drawn)	inactive: 5.57%
CP(=O)(NC(=O)Nc1ccccc1)Oc1ccccc1 (stereo not drawn)	inactive: -4.87%
CCc1ccc(OP(C)(=O)N2CCN(c3ccc([N+](=O)[O-])cc3)CC2)cc1 (stereo not drawn)	inactive: -5.05%
Cc1cc(C)cc(OP(C)(=O)Nc2ccc(SC(F)(F)F)cc2)c1 (stereo not drawn)	inactive: -10.2%
CCOC(=O)c1ccc(NP(C)(=O)Oc2ccc(OC)cc2)cc1 (stereo not drawn)	inactive: 9.42%
CCOP(C)(=S)SCC(=O)NC(C)C(=O)O (stereo not drawn)	inactive: 2.68%
CP(=O)(Nc1ccccn1)Oc1ccc(Cl)cc1 (stereo not drawn)	inactive: -8.38%
CP(=S)(Nn1cnnc1)Oc1ccccc1 (stereo not drawn)	inactive: -4.08%
CP(=O)(Nc1ccccc1Br)Oc1ccccc1 (stereo not drawn)	inactive: 8.58%
COc1ccccc1OP(C)(=O)Nc1ccccc1 (stereo not drawn)	inactive: -0.14%
CCOC(=O)c1ccc(NP(C)(=O)Oc2ccc(Cl)cc2)cc1 (stereo not drawn)	inactive: 5.21%
CP(=O)(OC12CC3CC(CC(C3)C1)C2)OC12CC3CC(CC(C3)C1)C2	inactive: 5.5%
CCN(CC)CC(O)COC(=O)C(O)(c1ccccc1)C1CCCCC1 (stereo not drawn)	inactive: 4.04%
COc1ccc(OP(C)(=O)Nc2ccc(Br)cc2)cc1 (stereo not drawn)	inactive: -2.5%

SMILES	activation
COc1ccccc1OP(C)(=O)Nc1c(C)n(C)n(-c2ccccc2)c1=O (stereo not drawn)	inactive: -14.1%
O=C(OCCCN1CCCC1)C(O)(c1ccccc1)C1CCCCC1 (stereo not drawn)	inactive: -15.8%
CP(=O)(Oc1ccccc1)N1CCOC1=O (stereo not drawn)	inactive: -0.07%
CCc1ccc(OP(C)(=O)Nc2cccnc2)cc1 (stereo not drawn)	inactive: -14.9%
COc1ccccc1OP(C)(=O)Nc1ccccc1Br (stereo not drawn)	inactive: 2.46%
CC(C)(C)c1ccc(OP(C)(=O)O)cc1	inactive: -18.7%
CP(=O)(Nc1ccc(Cl)cc1)Oc1ccc(F)cc1 (stereo not drawn)	inactive: 3.15%
CN(C)C(=O)c1c([N+](=O)[O-])cc([N+](=O)[O-])cc1[N+](=O)[O-]	inactive: 2.88%
COc1ccccc1OP(C)(=O)Nc1ccc(Br)cc1 (stereo not drawn)	inactive: -2.62%
COc1ccc(OP(C)(=O)Nc2ccccn2)cc1 (stereo not drawn)	inactive: 5.71%
CN(C)CCOC(=O)C(O)(c1ccccc1)C1CCCC1 (stereo not drawn)	inactive: 1.8%
Cc1c(NP(C)(=O)Oc2ccc(C(C)C)cc2)c(=O)n(-c2ccccc2)n1C (stereo not drawn)	inactive: -3.77%
O=[N+]([O-])c1cc([N+](=O)[O-])c(Nc2ccccn2)c([N+](=O)[O-])c1	inactive: 0.58%
CP(=O)(Nc1ccccn1)Oc1ccccc1 (stereo not drawn)	inactive: 24.5%
COc1ccccc1OP(C)(=O)Nc1ccc(C)cc1C (stereo not drawn)	inactive: -1.64%
CCc1ccc(OP(C)(=O)O)cc1	inactive: -3.47%
Cc1cc(C)cc(OP(C)(=O)Nc2cccc(C(F)(F)F)c2)c1 (stereo not drawn)	inactive: 6.88%
COc1ccccc1OP(C)(=O)Nc1ccc(C)c(C)c1 (stereo not drawn)	inactive: 11.5%
COc1ccc(OP(C)(=O)Nc2ccccc2Br)cc1 (stereo not drawn)	inactive: 3.1%
Cc1nc2ccc3ccccc3c2o1.O=[N+]([O-])c1cc([N+](=O)[O-])c(O)c([N+](=O)[O-])c1	inactive: 5.03%
CP(=O)(Nc1ccc(Cl)cc1Cl)Oc1ccccc1 (stereo not drawn)	inactive: -16.6%

SMILES	activation
CP(=O)(OCCOc1ccccc1)OCCOc1ccccc1	inactive: -10.3%
CCOC(=O)c1ccc(NP(C)(=O)Oc2ccc(F)cc2)cc1 (stereo not drawn)	inactive: 4.96%
COc1ccc(OP(C)(=O)Nc2ccc(SC(F)(F)F)cc2)cc1 (stereo not drawn)	inactive: 17.7%
CCN(CC)CCCOC(=O)C(O)(c1ccccc1)C1CCCCC1 (stereo not drawn)	inactive: -12.1%
CP(=O)(Nc1ccccc1)Oc1ccc(F)cc1 (stereo not drawn)	inactive: 15.7%
CCCCCOc1ccc(NP(C)(=O)Oc2ccc(Cl)cc2Cl)cc1 (stereo not drawn)	inactive: -39.9%
CP(=O)(Nc1ccccc1F)Oc1ccccc1 (stereo not drawn)	inactive: 6.54%
CC(C)c1ccc(OP(C)(=O)Nc2ccc(SC(F)(F)F)cc2)cc1 (stereo not drawn)	inactive: -2.44%
O=C(OC1CN2CCC1CC2)c1ccc([N+](=O)[O-])cc1 (stereo not drawn)	inactive: -6.54%
O=C(OCCN1CCN(CCOCc2ccccc2)CC1)C(O)(c1ccccc1)c1ccccc1	inactive: -0.75%
CP(=O)(Nc1ccc(SC(F)(F)F)cc1)Oc1ccc(F)cc1 (stereo not drawn)	inactive: 18%
CCOP(C)(=S)SCC(=O)NC(C)(CC)C(=O)O (stereo not drawn)	inactive: 15%
CP(=O)(Nc1ccc2c(c1)OCCO2)Oc1ccccc1 (stereo not drawn)	inactive: -7.06%
Cc1ccccc1NP(C)(=O)Nc1ccccc1C	inactive: 16.4%
COc1ccc(OP(C)(=O)Nc2cccc(Br)c2)cc1 (stereo not drawn)	inactive: 9.19%
CN(C)CCOC(=O)C(O)(c1ccccc1)C1CCCCC1 (stereo not drawn)	inactive: -18.4%
COc1ccc(NP(C)(=O)Oc2ccccc2OC)cc1 (stereo not drawn)	inactive: 6.18%
O=[N+]([O-])c1ccc(OP2(=O)COCCO2)cc1 (stereo not drawn)	inactive: -1.61%
Cc1cc(-c2cccc3ccccc23)c(C)cn1.O=[N+]([O-])c1cc([N+](=O)[O-])c(O)c([N+](=O)[O-])c1	inactive: -16.1%
O=[N+]([O-])c1cc([N+](=O)[O-])c(NCC2CCS(=O)(=O)C2)c([N+](=O)[O-])c1 (stereo not drawn)	inactive: -4.58%
